The test system of the data set is Swiss mice. Briefly: Oral toxicity (mortality) in the mouse, Table 1. Conditions: 2000 mg/kg, 14 days. In kind it is in vivo. How it is done: The mortality percentages caused by the products of the present invention administered orally to Swiss mice are shown in Table 1. The animals, free of specific pathological organism were housed in an air conditioned room from 24 to 48 hours before the start of the experiments. They were divided up into lots of 5 males and 5 females. With the animals unfed for 24 hours, the substances were administered intragastrically in a base of 6% gum arabic in a volume equal to 0.1 ml for 10 g of animal weight. The mortality was recorded at 14 days.
% of mortality as a function of the dose

With “2-(2-N,N-dimethylamino-1-methylethyl)-N-pyridylidene-3 aniline [COR 01 213]”, the “% of mortality” value is 0%.

The record behind these values is patent publication US4333930A, “Orthoarylideneaminophenethylamines and pharmaceutical compositions” (priority 1980, dated 1982).
